The values below are quoted from earlier work in US8088918B2, “Noncardiotoxic pharmaceutical compounds” (Williamsburg Holdings LLC, priority 2004, dated 2012).

For this data set the following is noted: cited from earlier work.

For the molecule `Cc1nc2n(c(=O)c1CCN1CCC(c3noc4cc(F)ccc34)CC1)CCCC2` [risperidone], the pKa was 8.24.
